Source: patent US20160115186A1, “PHOSPHORIC ACID/PHOSPHONIC ACID DERIVATIVES AND MEDICINAL USES THEREOF” (priority 2013, published 2016)

Assays:
DHBV = type: in vivo, sheldrakes; conditions: serum DHBV DNA, 50 mg/kg intragastric once a day for 14 days
Experimental: The sheldrakes infected by vertical transmission and being positive in DHBV DNA detection were grouped randomly, 5/group. Water and different doses of the compound to be tested were intragastrically administrated, respectively, once a day, for 14 days. Venous blood samples were collected pre-dosing, at day 14 of dosing and at day 7 after drug withdrawal, the serum DHBV DNA content was measured using external standard TaqMan real-time fluorescence PCR method, and the inhibition ratio was calculated, as compared to the solvent group.

[1] = Evaluation of liver targeting property (active drug in liver and blood, HPLC-MS/MS); type: in vivo, Balb/C mice; conditions: intragastric, dose equimolar to fosfomycin 200 mg/kg, active drug (free phosphonic or phosphoric acid)
Excerpt: Instrument: Finnigan Co. USA, TSQ Quantum-type liquid chromatography-mass spectrometry (LC/MS/MS), consisting of Finnigan Surveyor LC pump. Surveyor AS automatic sampler, electrospray ionization source (ESI) and triple tandem mass spectrometer. The control software is X calibur 1.4, Lcquan 2.0 data processing system is used for mass spectrometry data analysis. The chromatography column is Discovery ODS column (250 mm×4.6 mm, 5 μm), C18 guard column (4 mm×3.0 mm), the mobile phase is methanol-water-formic acid (10-30:90-70:0.5, V/V/V), the flow rate is 0.7 ml/min; the sample amount is 20 μL; and the column temperature is room temperature.

in vitro = type: cell-based; conditions: human; Hep G 2.2.15 cells, MTT, day 3 post-dosing
Experimental: Hep G 2.2.15 cells were inoculated in a 96-well plate (with cell number being 5.5×10^4) to continually cultivate for 3 days, new culture solutions containing different concentrations of drugs were added, and 3 wells were provided in parallel; at day 3 post-dosing, MTT was added until 7.5 mg/ml, and continued to cultivate for 2 hours, the supernate was discarded, isopropanol containing 10% […] was added, 120 μl/well, and 0.4 μl/well was further added.

SMILES: CC(C)OC(=O)[C@H](C)N[P@](=O)(CO[C@H](C)Cn1cnc2c(N)ncnc21)Oc1ccccc1.O=C(O)/C=C/C(=O)O [GS-7340, 9-[(R)-2-[[(S)-[[(S)-1-(isopropoxycarbonyl)-ethyl]-amino]-phenoxylphosphonyl]-methoxyl]-propyl]-adenine fumarate, reference compound]
- Inhibition ratio (%) Day 14 of dosing (DHBV): 85.2%
- Inhibition ratio (%) day 7 after drug withdrawal (DHBV): 23.1%
- Cliver/Cblood ([1]; 1 h post-dosing): 6.12
- Cliver/Cblood ([1]; 6 h post-dosing): 8.46

SMILES: Nc1ncnc2c1ncn2CCOCP(=O)(Oc1ccccc1)Oc1ccccc1 [i-1, 9-[[bis-(phenoxyl)-phosphonyl-methoxyl]-ethyl]-adenine, reference compound]
- CC50 at 3 days (in vitro): > 200 µM
